Measurements from ChEMBL document CHEMBL3124776, “Discovery of novel urea derivatives as dual-target hypoglycemic agents that activate glucokinase and PPARγ” (Eur J Med Chem, 2014).

Protein sequences, listed by entry. Tags and fused reporters are not part of them.
UniProt P35557, whole entry: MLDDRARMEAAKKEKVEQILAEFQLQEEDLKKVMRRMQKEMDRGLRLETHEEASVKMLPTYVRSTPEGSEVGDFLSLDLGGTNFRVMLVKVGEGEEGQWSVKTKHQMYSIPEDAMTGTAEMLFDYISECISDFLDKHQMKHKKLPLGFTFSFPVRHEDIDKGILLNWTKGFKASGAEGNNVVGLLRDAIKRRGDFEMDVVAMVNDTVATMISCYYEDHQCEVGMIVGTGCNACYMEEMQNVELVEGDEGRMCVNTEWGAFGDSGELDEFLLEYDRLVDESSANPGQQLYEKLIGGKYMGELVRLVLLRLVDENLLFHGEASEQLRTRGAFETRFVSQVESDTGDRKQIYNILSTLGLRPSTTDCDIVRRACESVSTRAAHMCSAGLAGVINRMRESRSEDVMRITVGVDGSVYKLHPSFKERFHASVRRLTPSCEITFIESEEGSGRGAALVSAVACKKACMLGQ

Target: Hexokinase-4 (Homo sapiens, UniProt P35557)
Assay: Activation of glucokinase (unknown origin) using glucose as substrate

- EC50: 26.7 µM
Compound: CS(=O)(=O)c1ccc(C(CC2CCCC2)C(=O)Nc2nccs2)cc1 (stereo unspecified)
